Results published in US7507758B2, “4-alkyl-/4-alkenyl-/4-alkynyl methyl/-1-aryl-cyclohexylamine compounds” (dated 2009).

The chains behind the UniProt entries cited, without tags or fusion partners.
UniProt P35372, whole entry, looked up: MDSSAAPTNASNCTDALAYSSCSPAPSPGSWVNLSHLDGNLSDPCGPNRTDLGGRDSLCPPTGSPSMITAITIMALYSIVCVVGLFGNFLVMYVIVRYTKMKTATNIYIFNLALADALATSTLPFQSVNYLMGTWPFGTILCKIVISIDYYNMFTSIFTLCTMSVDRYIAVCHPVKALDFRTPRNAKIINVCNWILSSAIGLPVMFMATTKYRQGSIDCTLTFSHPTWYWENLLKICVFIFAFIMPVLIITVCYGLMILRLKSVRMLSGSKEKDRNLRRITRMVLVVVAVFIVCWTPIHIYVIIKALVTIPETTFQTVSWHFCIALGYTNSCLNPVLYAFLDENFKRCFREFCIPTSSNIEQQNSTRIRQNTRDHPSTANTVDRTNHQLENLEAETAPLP

Target: human μ-opiate receptor (Homo sapiens, UniProt P35372)
Test: μ-binding: [3H]-naloxone displacement, receptor membrane preparation of CHO-K1 cells
Conditions: [3H]-naloxone 1 nmol/l

Compound	Ki (read-out: μ Ki, CHO-K1 membranes, Cheng-Prusoff conversion) [nM]	μ % inhibition [1 μM] (test substance 1 μM) [%]
CN(C)C1(c2ccccc2)CCC(C(O)C#Cc2cn(C(=O)OC(C)(C)C)c3ccccc23)CC1 (centres unmarked)	88	
3-[3-tert-butoxycarbonyloxy-3-(4-dimethylamino-4-phenylcyclohexyl)-prop-1-ynyl]indole-1-carboxylic acid-tert-butyl ester, polar diastereoisomer		55
